Reference: US20090239822A1, “Process for the preparation of esters of diacerein with hyaluronic acid and pharmaceutical compositions containing such esters” (priority 2006, published 2009)

Key:
Solubility = conditions: in water

Hyaluronic Acid Diacerein Ester
pH in water: 7.0-8.0
Solubility (Solubility): > 5000 µg/mL
